Consider one molecule from patent US4668672A, “Feed compositions containing pyridylalkylhydrazides” (SmithKline Beckman Corporation, priority 1985, dated 1987).

The assay deals with swine ileal or cecal inoculum (filtrate of cannula material). Nature of the assay: In vitro swine procedure (incubation of inoculum from cannulated swine, in vitro fistula procedure). Also on record: species or system swine (Yorksire barrow). The note with it: 166.67 ppm; 5 hours at 37°; blank control = 100%.

On to `COC(=O)NN=Cc1ccccn1`, for which the “LAC (L lactic acid)” value is 99 % of Control Values.
